Experimental findings from ChEMBL document CHEMBL1156939 are described below.

Amino acid sequences for entries named in this document (tags omitted). A change or cut given only in a name is not applied to a line headed by its entry.
UniProt P41145: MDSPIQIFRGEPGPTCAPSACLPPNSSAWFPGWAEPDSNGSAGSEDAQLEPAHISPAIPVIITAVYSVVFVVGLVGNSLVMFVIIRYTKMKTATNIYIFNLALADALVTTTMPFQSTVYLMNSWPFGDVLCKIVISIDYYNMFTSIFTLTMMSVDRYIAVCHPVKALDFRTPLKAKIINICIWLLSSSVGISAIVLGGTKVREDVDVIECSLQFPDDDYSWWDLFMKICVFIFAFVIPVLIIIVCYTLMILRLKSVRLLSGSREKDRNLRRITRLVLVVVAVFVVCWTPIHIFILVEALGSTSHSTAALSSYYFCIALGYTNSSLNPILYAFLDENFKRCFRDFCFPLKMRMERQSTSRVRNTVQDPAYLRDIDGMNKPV
UniProt P35372, whole entry, looked up: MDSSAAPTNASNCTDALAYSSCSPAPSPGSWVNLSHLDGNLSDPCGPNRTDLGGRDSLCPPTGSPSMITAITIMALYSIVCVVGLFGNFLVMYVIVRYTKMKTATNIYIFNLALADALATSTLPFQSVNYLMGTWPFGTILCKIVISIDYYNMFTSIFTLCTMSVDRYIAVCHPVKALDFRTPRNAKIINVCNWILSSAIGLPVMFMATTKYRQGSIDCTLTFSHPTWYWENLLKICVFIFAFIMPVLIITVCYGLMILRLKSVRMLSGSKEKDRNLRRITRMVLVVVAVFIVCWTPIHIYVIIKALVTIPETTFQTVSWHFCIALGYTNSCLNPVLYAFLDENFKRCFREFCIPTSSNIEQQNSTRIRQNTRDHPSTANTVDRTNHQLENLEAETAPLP

Each structure is given as a SMILES string.

The target in assay [1] is Kappa-type opioid receptor (Homo sapiens, UniProt P41145).
In the next assay the target is Mu-type opioid receptor (Homo sapiens, UniProt P35372).

As usually defined, the Ki is a dissociation constant, usually derived from enzyme kinetics or from competition with a known ligand. Regarding `O=CN1CC[C@]23c4c5ccc(O)c4O[C@H]2[C@@H](O)C=C[C@H]3[C@H]1C5`, the Ki in assay [1] worked out at 363 nM; on Mu-type opioid receptor, 420 nM.
